Data on four molecules can be found in paper PMC5828360, “Identification and characterization of highly versatile peptide-vectors that bind non-competitively to the low-density lipoprotein receptor for in vivo targeting and delivery of small molecules and protein cargos” (PLoS ONE, 2018).

Sequences of proteins named here, by UniProt entry; tags and fusion partners are left off. Residues count along the entry.
UniProt P01130, 22-860: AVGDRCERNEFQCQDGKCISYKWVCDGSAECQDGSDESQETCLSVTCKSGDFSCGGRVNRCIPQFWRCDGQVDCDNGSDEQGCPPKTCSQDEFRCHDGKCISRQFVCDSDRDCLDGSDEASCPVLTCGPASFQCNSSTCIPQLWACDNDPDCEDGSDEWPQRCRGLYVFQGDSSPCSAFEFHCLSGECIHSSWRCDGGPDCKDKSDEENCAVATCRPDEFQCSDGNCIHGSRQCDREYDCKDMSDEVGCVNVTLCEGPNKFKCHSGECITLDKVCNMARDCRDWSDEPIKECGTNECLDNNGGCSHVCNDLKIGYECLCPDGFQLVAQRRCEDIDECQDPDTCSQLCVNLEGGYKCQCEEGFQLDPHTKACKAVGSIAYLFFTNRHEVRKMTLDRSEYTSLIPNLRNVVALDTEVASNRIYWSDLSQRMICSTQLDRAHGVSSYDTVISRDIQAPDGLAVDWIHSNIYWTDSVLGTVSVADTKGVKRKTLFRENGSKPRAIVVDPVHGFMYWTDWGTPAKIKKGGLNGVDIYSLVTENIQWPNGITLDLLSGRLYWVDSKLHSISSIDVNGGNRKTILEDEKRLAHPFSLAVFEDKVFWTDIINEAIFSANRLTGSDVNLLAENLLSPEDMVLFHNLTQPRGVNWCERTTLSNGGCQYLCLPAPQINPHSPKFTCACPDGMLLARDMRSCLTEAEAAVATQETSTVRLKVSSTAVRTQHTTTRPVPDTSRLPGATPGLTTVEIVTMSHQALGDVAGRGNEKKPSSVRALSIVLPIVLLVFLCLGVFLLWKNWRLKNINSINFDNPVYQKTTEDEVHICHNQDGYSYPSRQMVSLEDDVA
UniProt P01130, 22-788 limits assumed: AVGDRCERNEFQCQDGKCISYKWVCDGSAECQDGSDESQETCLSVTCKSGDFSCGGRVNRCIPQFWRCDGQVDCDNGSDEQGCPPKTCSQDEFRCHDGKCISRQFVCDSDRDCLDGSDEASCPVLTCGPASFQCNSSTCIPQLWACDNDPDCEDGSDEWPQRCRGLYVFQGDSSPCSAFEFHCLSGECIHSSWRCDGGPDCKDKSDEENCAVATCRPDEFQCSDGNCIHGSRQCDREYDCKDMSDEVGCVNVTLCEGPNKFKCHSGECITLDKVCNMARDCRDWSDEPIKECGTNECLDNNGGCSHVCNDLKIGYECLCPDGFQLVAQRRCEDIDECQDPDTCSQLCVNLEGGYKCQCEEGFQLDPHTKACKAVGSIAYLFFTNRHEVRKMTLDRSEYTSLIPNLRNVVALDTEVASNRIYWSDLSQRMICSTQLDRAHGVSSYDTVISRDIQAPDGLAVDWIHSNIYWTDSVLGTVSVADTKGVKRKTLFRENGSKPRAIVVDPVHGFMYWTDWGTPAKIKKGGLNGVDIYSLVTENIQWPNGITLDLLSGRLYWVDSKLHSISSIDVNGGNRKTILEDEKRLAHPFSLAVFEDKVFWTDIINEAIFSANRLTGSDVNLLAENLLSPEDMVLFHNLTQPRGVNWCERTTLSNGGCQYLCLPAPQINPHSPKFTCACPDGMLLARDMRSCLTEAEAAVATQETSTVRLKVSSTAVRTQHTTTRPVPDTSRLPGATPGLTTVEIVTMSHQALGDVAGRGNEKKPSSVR
UniProt P02786, whole entry: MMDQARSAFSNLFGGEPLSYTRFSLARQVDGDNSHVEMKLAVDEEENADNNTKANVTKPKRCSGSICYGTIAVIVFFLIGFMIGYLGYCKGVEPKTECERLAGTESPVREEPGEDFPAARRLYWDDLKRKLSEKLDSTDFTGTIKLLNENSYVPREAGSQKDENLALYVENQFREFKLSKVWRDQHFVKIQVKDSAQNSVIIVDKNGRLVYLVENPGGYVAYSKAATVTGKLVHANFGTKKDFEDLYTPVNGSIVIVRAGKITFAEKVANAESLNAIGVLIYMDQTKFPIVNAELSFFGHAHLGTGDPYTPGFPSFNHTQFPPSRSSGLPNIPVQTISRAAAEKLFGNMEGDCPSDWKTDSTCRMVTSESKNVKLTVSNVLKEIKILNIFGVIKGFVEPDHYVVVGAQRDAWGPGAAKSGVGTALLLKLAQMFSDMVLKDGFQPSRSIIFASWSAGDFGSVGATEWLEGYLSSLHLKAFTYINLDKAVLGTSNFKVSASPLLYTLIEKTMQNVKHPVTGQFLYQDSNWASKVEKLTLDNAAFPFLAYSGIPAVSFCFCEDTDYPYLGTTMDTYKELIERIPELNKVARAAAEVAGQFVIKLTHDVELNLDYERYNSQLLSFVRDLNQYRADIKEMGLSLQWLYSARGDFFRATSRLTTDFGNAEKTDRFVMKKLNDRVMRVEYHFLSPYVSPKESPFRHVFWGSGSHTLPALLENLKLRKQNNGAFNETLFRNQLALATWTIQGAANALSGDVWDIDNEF

For test [1], the target named is T1, hLDLR (Homo sapiens, UniProt P01130). In words: Immunocytochemistry, binding/endocytosis on CHO-hLDLR-EGFP cells. It is filed as cell-based. The arrangement: Full length coding regions for hLDLR, mLDLR, rLDLR and hTfR were amplified by RT-PCR; expressed in transfected cells. To be noted: 1 hr 37°C, 10 μM S-Tag or siRNA conjugates, Fc conjugates 100 nM to 0.1 nM.

A further test has as its target T2, hTfR (Homo sapiens, UniProt P02786).
T2 construct: Full length coding regions for hLDLR, mLDLR, rLDLR and hTfR were amplified by RT-PCR; expressed in transfected cells
In words: Immunocytochemistry on CHO-hTfR-EGFP / CHO-EGFP control cell lines. It is filed as cell-based. To be noted: CHO-hTfR-EGFP or CHO-EGFP, 10 μM, 1 hr 37°C.

The target in test [2] is T1, hLDLR. In words: Image J quantification of co-localization with hLDLR-GFP. It is filed as cell-based. The arrangement: Full length coding regions for hLDLR, mLDLR, rLDLR and hTfR were amplified by RT-PCR; expressed in transfected cells. Conditions: CHO-hLDLR-GFP, 10 μM, n = 3.
The target in test [3] is T1, hLDLR. In words: Surface Plasmon Resonance on immobilized hLDLR. The arrangement: purchased Sino Biological. To be noted: SPR Biacore T200, 25°C, HEPES pH7.4 running buffer, single-cycle kinetics, Langmuir 1:1 model, at least three independent experiments; (-) No binding.

Bounds are passed on as bounds.

Consider `CSCC[C@H](NC(=O)[C@H](Cc1c[nH]cn1)NC(=O)[C@H](CCC(N)=O)NC(=O)[C@H](CCCNC(=N)N)NC(=O)[C@H](CCC(=O)O)NC(=O)[C@H](Cc1ccccc1)NC(=O)[C@H](CCCCN)NC(=O)[C@H](C)NC(=O)[C@H](C)NC(=O)[C@H](C)NC(=O)[C@@H](NC(=O)[C@H](CCC(=O)O)NC(=O)[C@H](CCCCN)NC(=O)CNC(=O)CNC(=O)CNC(=O)[C@H](CCCNC(=N)N)NC(=O)[C@@H]1CCCN1C(=O)[C@H](CC(=O)O)NC(=O)[C@@H]1CSSC[C@H](NC(=O)[C@H](CC(C)C)NC(=O)CNC(=O)[C@H](CO)NC(=O)[C@H](CC(=O)O)NC(C)=O)C(=O)N[C@@H](CCSC)C(=O)N2CCC[C@H]2C(=O)N[C@@H](CCCNC(=N)N)C(=O)N[C@@H](CC(C)C)C(=O)N[C@@H](CCCNC(=N)N)C(=O)NCC(=O)N1)[C@@H](C)O)C(=O)N[C@@H](CC(=O)O)C(=O)N[C@@H](CO)C(N)=O`, for which the “binding/endocytosis on hLDLR expressing cells” value (shortened to “binding/endocytosis”) at hLDLR [1] is reported as “bound the CHO-hLDLR-EGFP cells”. The “binding on control cell lines” value at hTfR is “no binding was observed”. Regarding `CCC(=O)N[C@H](C(=O)N[C@@H](CCC(=O)O)C(=O)N[C@@H](CCC(=O)O)C(=O)N[C@@H](CC(C)C)C(=O)N[C@@H](CCCNC(=N)N)C(=O)N[C@H](C(=O)N[C@@H](CCCNC(=N)N)C(=O)N[C@@H](CC(C)C)C(=O)N[C@@H](C)C(=O)N[C@@H](CO)C(=O)N[C@@H](Cc1c[nH]cn1)C(=O)N[C@@H](CC(C)C)C(=O)N[C@@H](CCCNC(=N)N)C(=O)N[C@@H](CCCCN)C(=O)N[C@@H](CC(C)C)C(=O)N[C@@H](CCCNC(=N)N)C(=O)N[C@@H](CCCCN)C(=O)N[C@@H](CCCNC(=N)N)C(=O)N[C@@H](CC(C)C)C(=O)N[C@@H](CC(C)C)C(=O)N[C@@H](CCCNC(=N)N)C(=O)N[C@@H](CC(=O)O)C(=O)N[C@@H](C)C(=O)NCC(=O)NCC(=O)NCC(=O)N[C@@H](CCCCN)C(=O)N[C@@H](CCC(=O)O)C(=O)N[C@H](C(=O)N[C@@H](C)C(=O)N[C@@H](C)C(=O)N[C@@H](C)C(=O)N[C@@H](CCCCN)C(=O)N[C@@H](Cc1ccccc1)C(=O)N[C@@H](CCC(=O)O)C(=O)N[C@@H](CCCNC(=N)N)C(=O)N[C@@H](CCC(N)=O)C(=O)N[C@@H](Cc1c[nH]cn1)C(=O)N[C@@H](CCSC)C(=O)N[C@@H](CC(=O)O)C(=O)N[C@@H](CO)C(N)=O)[C@@H](C)O)C(C)C)[C@@H](C)O` [ApoE1-S-Tag], the “percentage of hLDLR that co-localized with the S-Tag peptide” value at hLDLR [2] was “under 10%”. With “SiGLOCycloB-MCC-(Pr-cM"Thz"RLRG"Pen"-G-(CH2)2-S) (disulfide) [SiGLO CyclophilineB-VH4127]”, on hLDLR [1], the “binding/endocytosis” value was “bound the hLDLR expressing cell line and was endocytosed”.

On hLDLR [3], “hIgG1Fc-SMCC- (Pr- cRPLGRMC-G-(CH2)2-S)2 (disulfide) [(VH4Sc)2-Fc, human IgG1-Fc chemically conjugated to scrambled VH4Sc peptide via sulfo-SMCC]” displayed a Kd above 80 nM. Also, the “binding/endocytosis” value at hLDLR [1] is listed as “No uptake”.
